Test [1] concerns the target Kappa-type opioid receptor (Homo sapiens) (UniProt P41145). In words: Antagonist activity at human kappa opioid receptor expressed in CHO cells assessed as inhibition of U69,593-stimulated [35S]GTPgammaS binding at 10 nM relative to control. It counts as functional, cell-based. In general terms: GTPγS is a poorly hydrolysed GTP analogue; its binding reports G protein activation.

Protein sequences, listed by entry. Tags and fused reporters are not part of them. Lines headed by an entry give the natural chain unless they say otherwise; changes in a name come on top.
UniProt P41145: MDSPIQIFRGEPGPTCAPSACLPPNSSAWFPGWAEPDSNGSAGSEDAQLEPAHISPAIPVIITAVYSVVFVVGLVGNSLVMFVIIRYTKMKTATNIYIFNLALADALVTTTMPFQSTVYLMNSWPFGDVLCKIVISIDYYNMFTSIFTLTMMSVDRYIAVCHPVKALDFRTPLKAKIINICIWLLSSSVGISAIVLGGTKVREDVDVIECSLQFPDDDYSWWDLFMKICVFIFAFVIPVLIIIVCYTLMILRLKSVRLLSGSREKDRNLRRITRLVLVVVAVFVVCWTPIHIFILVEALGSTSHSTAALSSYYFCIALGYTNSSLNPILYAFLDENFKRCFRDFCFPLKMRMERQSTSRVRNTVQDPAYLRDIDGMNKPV
UniProt P41143, whole entry: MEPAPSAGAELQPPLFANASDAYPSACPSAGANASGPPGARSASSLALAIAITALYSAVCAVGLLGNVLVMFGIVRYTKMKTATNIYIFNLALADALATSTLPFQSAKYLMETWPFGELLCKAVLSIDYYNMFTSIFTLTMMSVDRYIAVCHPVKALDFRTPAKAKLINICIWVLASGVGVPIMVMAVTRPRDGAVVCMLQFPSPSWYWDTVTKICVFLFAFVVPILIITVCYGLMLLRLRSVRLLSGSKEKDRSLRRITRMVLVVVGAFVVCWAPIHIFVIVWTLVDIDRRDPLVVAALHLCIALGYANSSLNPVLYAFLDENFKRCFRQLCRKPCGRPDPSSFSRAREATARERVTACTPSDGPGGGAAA
UniProt P35372, whole entry: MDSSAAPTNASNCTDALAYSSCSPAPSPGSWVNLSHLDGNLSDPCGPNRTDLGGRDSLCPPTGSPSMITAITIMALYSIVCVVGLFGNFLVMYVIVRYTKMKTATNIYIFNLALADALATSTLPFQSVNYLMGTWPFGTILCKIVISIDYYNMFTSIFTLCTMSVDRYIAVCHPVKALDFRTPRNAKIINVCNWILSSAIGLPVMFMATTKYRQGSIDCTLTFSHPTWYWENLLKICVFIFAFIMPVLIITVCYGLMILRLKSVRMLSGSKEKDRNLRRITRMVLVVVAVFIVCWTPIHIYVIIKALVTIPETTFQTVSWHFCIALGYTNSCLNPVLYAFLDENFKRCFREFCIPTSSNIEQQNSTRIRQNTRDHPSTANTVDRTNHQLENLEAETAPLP

For test [2] the target is unchanged. In words: Intrinsic activity at human kappa opioid receptor expressed in CHO cells at 10 uM by [35S]GTPgammaS binding assay. It counts as functional, cell-based.
The species entered for test [3] is Homo sapiens. The test can be described thus: Selectivity ratio of Ke for human delta opioid receptor to Ke for human kappa opioid receptor.
For test [4], the species on record is Homo sapiens. The test can be described thus: Selectivity ratio of Ke for human mu opioid receptor to Ke for human kappa opioid receptor.
Test [5] addresses Kappa-type opioid receptor (Homo sapiens) (UniProt P41145). In words: Antagonist activity at human kappa opioid receptor expressed in CHO cells assessed as inhibition of U69,593-stimulated [35S]GTPgammaS binding. It counts as functional, cell-based. Summed up:
(§1)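 Agonist concentration-response curves (eight concentrations, duplicate) were run with or without a single test-compound concentration. Ke = [L]/(DR−1), where [L] is the test-compound concentration and DR is the ratio of agonist EC50 with versus without compound. At least two test-compound concentrations were used, chosen to shift agonist EC50 rightward at least four-fold while keeping a clear upper asymptote.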

Test [6] addresses Delta-type opioid receptor (Homo sapiens) (UniProt P41143). In words: Antagonist activity at human delta opioid receptor expressed in CHO cells assessed as inhibition of DPDPE-stimulated [35S]GTPgammaS binding. It counts as functional, cell-based. Summed up: as §1
Test [7] addresses Mu-type opioid receptor (Homo sapiens) (UniProt P35372). Conditions: CHO.

This note sets out measurements from ChEMBL document CHEMBL2380235, “Discovery of N-{4-[(3-hydroxyphenyl)-3-methylpiperazin-1-yl]methyl-2-methylpropyl}-4-phenoxybenzamide analogues as selective kappa opioid receptor antagonists” (J Med Chem, 2013).

Active and inactive are the calls of the source. The rule behind the calls is not given here. Bounds are passed on as bounds.

Turning to `COc1ccc(C(=O)N[C@H](CN2CCN(c3cccc(O)c3)[C@@H](C)C2)C(C)C)cc1OC`, in test [1], the inhibition was above 60%. Also, the outcome in test [2] was inactive.

For the compound `Cc1ccc(O)c(Oc2ccc(C(=O)N[C@H](CN3CCN(c4cccc(O)c4)[C@@H](C)C3)C(C)C)cc2)c1`, the Ratio Ke turned out to be 152 in the test listed under Homo sapiens [3] and 106 in the test listed under Homo sapiens [4]. Moreover, the Ke is 0.61 nM in test [5], 93 nM in test [6] and 65 nM in test [7].

As usually defined, the inhibition is the drop in the measured response relative to a control, in per cent.
